Molecular target: T1, Dihydrofolate reductase (Homo sapiens, UniProt P00374)
T1 sequence (P00374 whole entry): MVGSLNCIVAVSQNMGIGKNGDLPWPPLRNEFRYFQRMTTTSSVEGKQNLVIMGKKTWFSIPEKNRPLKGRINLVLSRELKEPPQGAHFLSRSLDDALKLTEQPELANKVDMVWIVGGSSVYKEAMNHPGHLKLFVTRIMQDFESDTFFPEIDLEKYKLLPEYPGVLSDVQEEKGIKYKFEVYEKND
Assay: Inhibition of DHFR

Nc1nc2[nH]cc(CCc3ccc(C(=O)N[C@@H](CCC(=O)O)C(=O)O)cc3)c2c(=O)[nH]1 [PEMETREXED]
Ki: 7.2 nM

Source: ChEMBL document CHEMBL1250453, “Novel approaches for targeting thymidylate synthase to overcome the resistance and toxicity of anticancer drugs” (J Med Chem, 2010)
